# Results published in patent US5705687A, “Neurotropic drug and method for preparation of same” (priority 1993, dated 1998).
# Counter-ions that a name gives are not always drawn.
# Test system: mice
# Test: Soporific action of barbital sodium
# [1] = 25 mg/kg i.p. + barbital sodium 250 mg/kg, P < 0.001
# [2] = 100 mg/kg i.p. + barbital sodium 250 mg/kg, P < 0.001
smiles,measurement,setting,value
"CC(C)(CO)C(=O)C(=O)NCCCC(=O)O [KPA-Ca, calcium salt of ketopantoyl aminobutyrate]",Duration of sleep,1 mg/kg i.p. + barbital sodium 250 mg/kg,159.1 ± 12.6 min
same,Lateral position,"1 mg/kg i.p. + barbital sodium 250 mg/kg, P < 0.001",26.5 ± 1.9 min
same,Duration of sleep,10 mg/kg i.p. + barbital sodium 250 mg/kg,195.4 ± 12.1 min
same,Lateral position,"10 mg/kg i.p. + barbital sodium 250 mg/kg, P < 0.001",23.4 ± 1.5 min
same,Duration of sleep,[1],121.2 ± 12 min
same,Lateral position,[1],21.4 ± 0.6 min
same,Duration of sleep,"50 mg/kg i.p. + barbital sodium 250 mg/kg, P < 0.001",154.7 ± 10.3 min
same,Lateral position,"50 mg/kg i.p. + barbital sodium 250 mg/kg, P < 0.01",23.7 ± 1.9 min
same,Duration of sleep,[2],181.8 ± 5.4 min
same,Lateral position,[2],23.0 ± 0.8 min
